# Source: patent US20150018528A1 (Novo Nordisk, published 2015)
# Chains of the proteins cited; added tags and fusions are not shown. Residues count along the entry.
# UniProt Q9NP99, 21-234: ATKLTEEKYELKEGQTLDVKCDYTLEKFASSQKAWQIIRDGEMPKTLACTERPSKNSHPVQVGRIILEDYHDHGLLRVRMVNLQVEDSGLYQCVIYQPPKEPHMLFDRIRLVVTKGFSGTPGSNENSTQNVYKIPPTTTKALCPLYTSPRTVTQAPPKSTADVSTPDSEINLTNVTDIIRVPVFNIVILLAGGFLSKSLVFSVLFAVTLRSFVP
# B1: hPGLYRP1-GPI on HEK293-6E cells (ligand, human, UniProt O75594 22-196, looked up)
# chain: QETEDPACCSPIVPRNEWKALASECAQHLSLPLRYVVVSHTAGSSCNTPASCQQQARNVQHYHMKTLGWCDVGYNFLIGEDGLVYEGRGWNFTGAHSGHLWNPMSIGISFMGNYMDRVPTPQAIRAAQGLLACGVAQGALRSNYVLKGHRDVQRTLSPGNQLYHLIQNWPHYRSP
# modifications: C-terminal GPI anchor
# Molecular target: human TREM-1 on BWZ.36/hTREM-1:DAP12:NFAT-LacZ reporter cells (human, UniProt Q9NP99 21-234)
# Assay: cell-based or functional assay
binder,measurement,value
B1,"Fold activity of BWZ/hTREM1 reporter cells co-incubated with transfected HEK293 6E cells, without PGN, against empty vector",2 fold
